# Data: patent US12122786B2, “Inhibitors of cyclic mono- and di-nucleotide phosphodiesterases and the uses thereof” (priority 2020, dated 2024)
# Biological target: PDE5A (Homo sapiens, UniProt O76074)
# Assay: Cyclic mononucleotide phosphodiesterase inhibition (PDE5A), Transcreener fluorescence polarization assay
# Details: 10 μM of compound, 1 μM cGMP, 1 h
row,Structure (SMILES),% inhibition (PDE5A)
1,Cc1ccc(C)c(NC(=O)Cn2cnc3ccccc3c2=O)c1,85.00%
2,Cc1ccc(Cl)cc1NC(=O)Cn1cnc2ccccc2c1=O,67%
3,Cc1ccc([N+](=O)[O-])cc1NC(=O)Cn1cnc2ccccc2c1=O,86.00%
4,CN(C)c1nc(-c2cccnc2)nc2c1CCN(C(=O)c1cccc(O)c1)C2,92.00%
